These are literature values, as cited in paper PMC10472371, “Discovery of E2730, a novel selective uncompetitive GAT1 inhibitor, as a candidate for anti‐seizure medication” (Epilepsia Open, 2023).

SMILES strings stand for the structures. Marks after values point to notes of the source that are not given here.

The series relates to ddY mice. Particulars: ref Levy et al.[39]; cited from earlier work.

Take `CCCC(CCC)C(=O)O` [Valproate, valproate]: the “TD50 (95% CI) in mouse rotarod test” value is 398 ^b mg/kg.
